In this experiment the target is calcium receptor (CasR) (Homo sapiens, UniProt P41180). The experiment in a line: FLIPR Assay for Evaluating the Potency and Selectivity of Test Compounds. Conditions: read-out: FLIPR IC50; HEK 293 cells expressing CasR; 30 minutes pre-incubation; stimulation by 1.7 mM Ca2+; read 42 seconds after stimulation. The source says:
FLIPR Assay for Evaluating the Potency and Selectivity of Test Compounds
Human kidney cell (HEK 293) expressing the calcium receptor (CasR) are used to detect antagonists of the receptor using Fluorometric imaging plate reader (FLIPR, Molecular Devices, Sunnyvale Calif.). Receptor activation by extracellular calcium results in the release of calcium from intracellular stores into the cytosol. A fluorescent indicator (Fluo-4) is internalized by the cells from growth media and interacts with calcium released into the cytosol to provide a means of quantifying intracellular Ca^2+ levels and receptor agonism/antagonism. Fluorescence intensity is detected by the FLIPR CCD camera and traced as a function of time. Potential antagonists are identified by their ability to decrease this fluorescent response.
To determine the IC50 values cells are loaded with Fluo4 (2.05 mM Fluo-4, 0.04% pluronic acid, 2.6 mM probenecid in 90% DMEM high glucose, 10% dialyzed Fetal Bovine Serum, 1× Pen Strep, 1×L-Glutamine, 3 ug/ml Puromycin, 27.5 nM Methotrexate) for 1 hour at 37° C. Prior to the addition of test compound cells are washed with a 10 mM HEPES buffer solution. The test compound, for example the compound of Example 1, is added at various doses (from 1 µM to 3 nM) and pre-incubated with cells for 30 minutes followed by stimulation of the CasR by the addition of 1.7 mM Ca^2+. […]

Amino acid sequences for entries named in this document (tags omitted). Residues count along the entry.
UniProt P41180, 20-1078 limits assumed: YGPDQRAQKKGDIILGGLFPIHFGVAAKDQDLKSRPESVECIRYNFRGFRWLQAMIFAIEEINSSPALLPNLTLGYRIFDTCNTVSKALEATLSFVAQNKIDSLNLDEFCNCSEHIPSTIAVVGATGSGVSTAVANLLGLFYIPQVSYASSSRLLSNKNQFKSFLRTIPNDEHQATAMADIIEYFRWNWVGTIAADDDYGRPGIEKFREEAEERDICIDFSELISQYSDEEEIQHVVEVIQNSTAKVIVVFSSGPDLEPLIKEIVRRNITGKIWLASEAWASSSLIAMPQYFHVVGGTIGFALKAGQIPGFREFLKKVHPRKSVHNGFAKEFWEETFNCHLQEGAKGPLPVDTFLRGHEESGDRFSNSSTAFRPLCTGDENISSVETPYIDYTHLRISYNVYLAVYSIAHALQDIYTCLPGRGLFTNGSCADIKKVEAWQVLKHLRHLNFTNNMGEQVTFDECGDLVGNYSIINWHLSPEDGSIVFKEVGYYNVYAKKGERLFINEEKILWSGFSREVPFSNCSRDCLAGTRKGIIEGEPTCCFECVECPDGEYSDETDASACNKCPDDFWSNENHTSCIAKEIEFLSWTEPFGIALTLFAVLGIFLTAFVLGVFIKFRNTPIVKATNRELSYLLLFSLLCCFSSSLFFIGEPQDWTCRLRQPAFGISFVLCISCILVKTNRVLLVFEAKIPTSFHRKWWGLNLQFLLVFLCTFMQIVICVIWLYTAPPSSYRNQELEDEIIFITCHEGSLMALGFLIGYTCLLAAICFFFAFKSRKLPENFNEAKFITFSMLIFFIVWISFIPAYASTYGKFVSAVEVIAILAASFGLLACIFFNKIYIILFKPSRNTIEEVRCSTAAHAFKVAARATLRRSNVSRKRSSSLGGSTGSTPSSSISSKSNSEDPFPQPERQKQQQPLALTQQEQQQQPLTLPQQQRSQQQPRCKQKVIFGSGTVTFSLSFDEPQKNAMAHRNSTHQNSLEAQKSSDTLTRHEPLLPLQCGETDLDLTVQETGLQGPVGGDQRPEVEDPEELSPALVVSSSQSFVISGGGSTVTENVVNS

Molecules are shown by their SMILES.

For `CC(Cc1ccccc1F)n1c(-c2cscn2)nc2ccnc(C(F)(F)F)c2c1=O` (single isomer, unassigned), the IC50 was 320 nM.

One may read the IC50 as the point on the concentration scale where inhibition reaches its midpoint.

The values are drawn from patent US7829572B2 (Pfizer Inc, priority 2006, dated 2010).
